This note sets out measurements from patent publication US5856529A, “Benzofuran and dihydrobenzofuran melatonergic agents” (Bristol-Myers Squibb Company, priority 1997, dated 1999).

Chains of the proteins cited; added tags and fusions are not shown.
UniProt P48039, whole entry: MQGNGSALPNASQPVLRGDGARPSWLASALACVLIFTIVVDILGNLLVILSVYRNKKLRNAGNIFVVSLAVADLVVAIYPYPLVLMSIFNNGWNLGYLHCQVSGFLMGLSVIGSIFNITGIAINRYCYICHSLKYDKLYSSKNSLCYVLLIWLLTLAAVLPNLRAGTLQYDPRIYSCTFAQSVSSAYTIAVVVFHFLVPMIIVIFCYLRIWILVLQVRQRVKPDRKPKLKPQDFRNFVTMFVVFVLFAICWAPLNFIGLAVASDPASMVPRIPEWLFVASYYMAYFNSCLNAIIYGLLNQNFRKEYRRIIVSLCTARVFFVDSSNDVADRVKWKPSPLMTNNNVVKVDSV

The structures appear in SMILES notation.

The term IC50 denotes the concentration that inhibits the measured activity by half.

In this experiment the target is ML1a human melatonin receptor (Homo sapiens, UniProt P48039). Briefly: Melatonergic Receptor Binding Activity (2-[125I]-iodomelatonin, membranes of NIH-3T3 cells expressing ML1a receptor). The note with it: read-out: Melatonin Binding Affinity (IC50), 37° C. for 1 hour. How it is done:
Melatonergic Receptor Binding Activity
(a) TME=50 mM Tris buffer containing 12.5 mM MgCl2, and 2 mM EDTA, pH 7.4 at 37° C. with concentrated HCl.
(b) Wash buffer: 20 mM Tris base containing 2 mM MgCl2, pH 7.4 at room temperature.
(c) 10^-4 M melatonin (10^-5 M final concentration).
(d) 2-[^125 I]-iodomelatonin, […] final concentration
The melatonin ML1a receptor cDNA was subcloned into pcDNA3 and introduced into NIH-3T3 cells using Lipofectamine. Transformed NIH-3T3 cells resistant to geneticin (G-418) were isolated, and single colonies expressing high levels of 2[^125 I]-iodomelatonin binding were isolated. Cells are maintained in DMEM supplemented with 10% calf serum and G-418 (0.5 g/liter). Cells are grown to confluency in T-175 flasks, scraped using Hank's balanced salt solution, and frozen at -80° C. For preparing membrane homogenates, pellets are thawed on ice, and resuspended in TME buffer in the presence of 10 μg/ml aprotinin and leupeptin, and 100 μM phenylmethylsulfonylfluoride. The cells were then homogenized using a dounce homogenizer, and centrifuged. The resulting pellet was resuspended with dounce homogenizer in TME (supplemented with the above protease inhibitors) and frozen. On the day of assay, the small aliquot was thawed on ice and resuspended in ice cold TME (1:50-1:100 v/v) and held on ice until assayed.
3. Incubation: 37° C. for 1 hour. […]

For `CCNC(=O)NCC1CC1c1cccc2c1OCCO2` (stereo not shown), the IC50 was 0.1 to 0.25 µM.
